Bounds are passed on as bounds.

Consider three compounds from ChEMBL document CHEMBL1144321, “Synthesis and evaluation of novel peripherally restricted kappa-opioid receptor agonists” (Bioorg Med Chem Lett, 2005).

In assay [1] the target is Opioid receptors; mu & kappa (Homo sapiens) (UniProt P41145+P35372). Put plainly: Selectivity ratio of inhibition of kappa opioid receptor to that of mu receptor was determined.
The target of assay [2] is Opioid receptors; delta & kappa (Homo sapiens) (UniProt P41145+P41143). Put plainly: Selectivity ratio of inhibition of kappa opioid receptor to that of delta receptor was determined.

For `CN(C(=O)Cc1ccc(C(F)(F)F)cc1)C(CN1CCCC1)c1cccc(O)c1` (racemic), the Ratio worked out at 68 in assay [1] and 230 in assay [2].

For `CN(C(=O)Cc1ccc(C(F)(F)F)cc1)[C@H](CN1CCCC1)c1cccc(N)c1`, the Ratio in assay [1] is 110; in assay [2], 130.

As for `COc1cccc(C(CN2CCCC2)N(C)C(=O)Cc2ccc(C(F)(F)F)cc2)c1` (racemic), the Ratio in assay [1] was 870; in assay [2] it was greater than 1000.
